The values that follow come from ChEMBL document CHEMBL1132182, “2,6-Difluorophenol as a bioisostere of a carboxylic acid: bioisosteric analogues of gamma-aminobutyric acid” (J Med Chem, 1999).

Sequences of proteins named here, by UniProt entry; tags and fusion partners are left off. A change or cut given only in a name is not applied to a line headed by its entry.
UniProt P80147: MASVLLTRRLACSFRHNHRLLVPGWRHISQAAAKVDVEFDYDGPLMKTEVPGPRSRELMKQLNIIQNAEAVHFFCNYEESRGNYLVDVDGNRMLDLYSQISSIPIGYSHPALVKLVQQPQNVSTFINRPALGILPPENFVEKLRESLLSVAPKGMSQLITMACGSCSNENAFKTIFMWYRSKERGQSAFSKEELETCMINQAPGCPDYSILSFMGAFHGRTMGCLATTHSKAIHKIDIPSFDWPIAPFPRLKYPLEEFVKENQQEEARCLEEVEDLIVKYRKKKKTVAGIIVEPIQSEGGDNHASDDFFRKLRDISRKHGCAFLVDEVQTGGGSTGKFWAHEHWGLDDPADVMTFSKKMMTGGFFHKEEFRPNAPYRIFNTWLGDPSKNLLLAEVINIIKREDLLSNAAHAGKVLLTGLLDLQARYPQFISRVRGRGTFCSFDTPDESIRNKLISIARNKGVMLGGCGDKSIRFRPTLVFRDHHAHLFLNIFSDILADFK

Each structure is given as a SMILES string.

The assay deals with 4-aminobutyrate aminotransferase, mitochondrial (Sus scrofa, UniProt P80147).

Consider `NCc1cc(F)c(O)c(F)c1`, for which the affinity corresponds to a Ki of 11 mM.
As to `NCc1ccc(F)c(O)c1F`, the inhibition constant Ki (commonly a dissociation constant, usually derived from enzyme kinetics or from competition with a known ligand) is 6.3 mM.
